Values of other authors in US20130101628A1, “NOVEL VEGF MIMETIC PEPTIDE-BASED SCAFFOLDS FOR THERAPEUTIC ANGIOGENESIS AND METHODS FOR THEIR USE” (NORTHWESTERN UNIVERSITY, priority 2011, published 2013).

Conditions: in vivo; cited from earlier work

VEGF
retention time in tissue following injection: at most, a few hours
